Structures can show the parent of a compound that is named as a salt.
Target: T1, Interstitial collagenase (Homo sapiens, UniProt P03956)
T1 sequence (P03956 whole entry): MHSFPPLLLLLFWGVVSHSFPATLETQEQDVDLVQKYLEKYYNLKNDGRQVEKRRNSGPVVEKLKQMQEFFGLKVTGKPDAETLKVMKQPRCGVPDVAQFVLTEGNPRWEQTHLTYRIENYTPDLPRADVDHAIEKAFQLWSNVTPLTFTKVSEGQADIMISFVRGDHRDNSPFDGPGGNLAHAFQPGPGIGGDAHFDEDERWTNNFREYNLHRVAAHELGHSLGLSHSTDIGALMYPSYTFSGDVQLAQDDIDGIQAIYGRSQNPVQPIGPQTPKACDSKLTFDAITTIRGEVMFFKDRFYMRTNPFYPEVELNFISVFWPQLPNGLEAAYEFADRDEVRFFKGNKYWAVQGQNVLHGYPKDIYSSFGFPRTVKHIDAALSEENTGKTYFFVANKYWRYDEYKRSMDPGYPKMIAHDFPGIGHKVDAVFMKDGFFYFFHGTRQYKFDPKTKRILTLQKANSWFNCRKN
Assay: Enzyme Inhibition Assay
Conditions: pH 7.5; 25 °C

Ki: 7.7 µM
SMILES: C#CCN1CCC(CS(=O)(=O)c2ccc(Oc3ccc(C)c(C)c3)cc2)(C(=O)NO)CC1 [4-({[4-(3,4-Dimethylphenoxy)phenyl]sulfonyl}methyl)-N-hydroxy-1-prop-2-ynylpiperidine-4-carboxamide Hydrochloride]

From BindingDB's records for doi:10.1021/jm0500875 (Pfizer, 2005)
